Results as given in ChEMBL document CHEMBL1641414, “Synthesis and pharmacological evaluation of 4-(3,4-dichlorophenyl)-N-methyl-1,2,3,4-tetrahydronaphthalenyl amines as triple reuptake inhibitors” (Bioorg Med Chem, 2011).

Sequences of proteins named here, by UniProt entry; tags and fusion partners are left off.
UniProt P31645, whole entry: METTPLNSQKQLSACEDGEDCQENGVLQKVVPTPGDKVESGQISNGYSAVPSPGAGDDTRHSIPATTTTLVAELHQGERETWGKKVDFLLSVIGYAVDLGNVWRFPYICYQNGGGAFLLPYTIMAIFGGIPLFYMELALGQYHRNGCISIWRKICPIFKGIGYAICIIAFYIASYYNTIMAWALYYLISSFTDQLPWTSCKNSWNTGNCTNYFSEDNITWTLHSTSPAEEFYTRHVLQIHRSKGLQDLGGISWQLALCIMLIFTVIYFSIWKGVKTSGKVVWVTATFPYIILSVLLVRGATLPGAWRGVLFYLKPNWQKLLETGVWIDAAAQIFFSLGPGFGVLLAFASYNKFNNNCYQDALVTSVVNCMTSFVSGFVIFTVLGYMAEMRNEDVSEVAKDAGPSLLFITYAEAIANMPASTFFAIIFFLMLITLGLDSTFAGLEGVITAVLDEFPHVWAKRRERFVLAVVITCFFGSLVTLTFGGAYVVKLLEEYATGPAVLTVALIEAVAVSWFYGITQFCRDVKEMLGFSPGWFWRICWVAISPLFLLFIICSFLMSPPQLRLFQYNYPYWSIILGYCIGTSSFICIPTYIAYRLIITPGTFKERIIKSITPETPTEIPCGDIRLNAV
UniProt P23975, whole entry: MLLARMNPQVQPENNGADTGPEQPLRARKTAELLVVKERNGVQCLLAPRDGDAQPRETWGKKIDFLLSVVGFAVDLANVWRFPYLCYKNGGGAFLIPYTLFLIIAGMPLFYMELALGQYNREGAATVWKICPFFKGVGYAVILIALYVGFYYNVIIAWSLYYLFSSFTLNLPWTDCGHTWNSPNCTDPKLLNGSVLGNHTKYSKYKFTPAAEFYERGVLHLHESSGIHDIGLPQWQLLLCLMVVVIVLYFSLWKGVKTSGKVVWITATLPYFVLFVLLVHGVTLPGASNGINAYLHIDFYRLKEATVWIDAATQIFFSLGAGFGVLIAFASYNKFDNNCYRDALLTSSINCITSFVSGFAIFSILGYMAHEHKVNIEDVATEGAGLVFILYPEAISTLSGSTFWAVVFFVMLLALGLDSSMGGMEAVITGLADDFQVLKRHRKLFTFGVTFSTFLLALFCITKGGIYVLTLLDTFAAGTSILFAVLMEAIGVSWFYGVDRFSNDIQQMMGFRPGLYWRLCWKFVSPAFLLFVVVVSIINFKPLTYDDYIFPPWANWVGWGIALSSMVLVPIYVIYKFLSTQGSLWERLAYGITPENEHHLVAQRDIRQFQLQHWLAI

target: Sodium-dependent serotonin transporter (Homo sapiens, UniProt P31645); assay type: cell-based, HEK293

| Compound | IC50 |
| --- | --- |
| N[C@@H]1Cc2ccccc2[C@@H](c2ccc(Cl)c(Cl)c2)C1 | 1.83 µM |
| N[C@@H]1Cc2ccccc2[C@H](c2ccc(Cl)c(Cl)c2)C1 | 0.084 µM |
| N[C@H]1Cc2ccccc2[C@@H](c2ccc(Cl)c(Cl)c2)C1 | 0.108 µM |
| CN[C@@H]1Cc2ccccc2[C@@H](c2ccc(Cl)c(Cl)c2)C1 | 0.125 µM |
| CN[C@@H]1Cc2ccccc2[C@H](c2ccc(Cl)c(Cl)c2)C1 | 0.008 µM |
| CN(C)[C@@H]1Cc2ccccc2[C@@H](c2ccc(Cl)c(Cl)c2)C1 | 0.108 µM |
| CN(C)[C@@H]1Cc2ccccc2[C@H](c2ccc(Cl)c(Cl)c2)C1 | 0.003 µM |
| CN(C)[C@H]1Cc2ccccc2[C@@H](c2ccc(Cl)c(Cl)c2)C1 | 0.02 µM |
| NC[C@H]1Cc2ccccc2[C@@H](c2ccc(Cl)c(Cl)c2)C1 | 0.019 µM |
| NC[C@H]1Cc2ccccc2[C@H](c2ccc(Cl)c(Cl)c2)C1 | 0.001 µM |
| NC[C@@H]1Cc2ccccc2[C@@H](c2ccc(Cl)c(Cl)c2)C1 | 0.061 µM |
| CNC[C@@H]1Cc2ccccc2[C@@H](c2ccc(Cl)c(Cl)c2)C1 | 0.054 µM |
| CNC[C@@H]1Cc2ccccc2[C@H](c2ccc(Cl)c(Cl)c2)C1 | 0.023 µM |
| CNC[C@H]1Cc2ccccc2[C@@H](c2ccc(Cl)c(Cl)c2)C1 | 0.016 µM |
| CN[C@H]1CCc2ccccc2[C@@H]1c1ccc(Cl)c(Cl)c1 | 0.042 µM |
| CN[C@@H]1CCc2ccccc2[C@@H]1c1ccc(Cl)c(Cl)c1 | 1.96 µM |
| CN[C@@H]1CCc2ccccc2[C@H]1c1ccc(Cl)c(Cl)c1 | 2.5 µM |
| CN[C@H]1CCc2ccccc2[C@H]1c1ccc(Cl)c(Cl)c1 | 2.83 µM |
| CN(C)C[C@H]1Cc2ccccc2[C@H](c2ccc(Cl)c(Cl)c2)C1 (mixture of isomers) | 0.97 µM |
| CN(C)C[C@@H]1Cc2ccccc2[C@H](c2ccc(Cl)c(Cl)c2)C1 (racemic) | 0.311 µM |

target: Sodium-dependent noradrenaline transporter (Homo sapiens, UniProt P23975); assay type: cell-based, MDCK

| Compound | IC50 |
| --- | --- |
| CN[C@@H]1Cc2ccccc2[C@@H](c2ccc(Cl)c(Cl)c2)C1 | 0.117 µM |
| CN[C@@H]1Cc2ccccc2[C@H](c2ccc(Cl)c(Cl)c2)C1 | 0.045 µM |
